Data on one compound can be found in patent publication US8586607B2, “Compounds for the treatment of metabolic diseases” (Syddansk Universitet, priority 2008, dated 2013).

Sequences of proteins named here, by UniProt entry; tags and fusion partners are left off.
UniProt O14842, whole entry: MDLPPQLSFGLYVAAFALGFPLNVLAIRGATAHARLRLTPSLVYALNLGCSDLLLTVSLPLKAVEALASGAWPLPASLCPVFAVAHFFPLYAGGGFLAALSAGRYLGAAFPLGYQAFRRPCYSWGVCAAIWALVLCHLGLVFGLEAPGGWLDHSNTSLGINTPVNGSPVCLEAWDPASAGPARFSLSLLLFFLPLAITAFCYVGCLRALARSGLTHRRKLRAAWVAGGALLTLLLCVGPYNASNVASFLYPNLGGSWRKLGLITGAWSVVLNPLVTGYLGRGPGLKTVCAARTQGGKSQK

The target of the experiment is human GPR40 (Homo sapiens, UniProt O14842). In words: Calcium mobilization assay, agonistic activity on GPR40. In kind it is cell-based. To be noted: cells expressing human GPR40 (hGPR40-1321N1).

Molecules are shown by their SMILES.

In the case of `Cc1cccc(C#Cc2ccc(CCC(=O)O)cc2)c1` [Example A7, 3-(4-(m-Tolylethynyl)phenyl)propanoic acid], the “GPR40 agonistic activity (pEC50)” value worked out at 6.97.
